Consider two molecules from patent publication US7413866B2, “Compositions and methods for detecting and treating diseases and conditions related to chemokine receptors” (ChemoCentryx, Inc., priority 2001, dated 2008).

Chains of the proteins cited; added tags and fusions are not shown.
UniProt P25106, whole entry: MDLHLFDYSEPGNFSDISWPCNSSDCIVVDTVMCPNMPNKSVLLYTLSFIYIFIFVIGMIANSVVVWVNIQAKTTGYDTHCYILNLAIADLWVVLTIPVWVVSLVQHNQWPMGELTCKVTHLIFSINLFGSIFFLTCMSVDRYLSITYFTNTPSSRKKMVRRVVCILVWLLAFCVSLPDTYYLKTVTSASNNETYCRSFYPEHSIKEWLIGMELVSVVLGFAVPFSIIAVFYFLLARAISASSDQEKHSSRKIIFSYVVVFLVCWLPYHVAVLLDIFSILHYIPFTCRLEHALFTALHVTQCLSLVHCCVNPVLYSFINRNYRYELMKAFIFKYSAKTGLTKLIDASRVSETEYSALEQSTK
UniProt P61073, whole entry: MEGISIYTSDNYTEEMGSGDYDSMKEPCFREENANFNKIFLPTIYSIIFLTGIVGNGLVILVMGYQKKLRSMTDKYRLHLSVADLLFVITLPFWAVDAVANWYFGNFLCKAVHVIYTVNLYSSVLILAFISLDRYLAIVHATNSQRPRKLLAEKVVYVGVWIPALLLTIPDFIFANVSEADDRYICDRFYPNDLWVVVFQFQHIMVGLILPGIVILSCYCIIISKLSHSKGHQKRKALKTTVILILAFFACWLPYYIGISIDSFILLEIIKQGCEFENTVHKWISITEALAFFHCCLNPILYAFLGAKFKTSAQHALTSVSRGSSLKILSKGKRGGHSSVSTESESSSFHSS

Each structure is given as a SMILES string.

One experiment concerns the target CXCR4 on MCF-7 cells (Homo sapiens, UniProt P25106). The experiment is described as follows: 125I SDF-1α competition binding on MCF-7 cells.
For the next experiment, the target named is CXCR4 on CEM-NKr cells (Homo sapiens, UniProt P61073). Briefly: 125I SDF-1α competition binding on CEM-NKr cells.

Take `CN(C)CCCN(CCCN(C)C)CC1CC2C=CC1C2` (stereo not shown): on CXCR4 on MCF-7 cells, the “competition with / inhibition of 125I SDF-1α binding on MCF-7 (in words)” value is given as “does not inhibit”. In addition, the concentration for half-maximal inhibition (IC50) at CXCR4 on CEM-NKr cells (read-out: IC50, inhibition of 125I SDF-1α binding to CEM-NKr, 3 hr at 4° C.) came out at 106 nM.

Take `c1ccc(COc2ccc3[nH]cc(CC[n+]4c(-c5ccccc5)cc(-c5ccccc5)cc4-c4ccccc4)c3c2)cc1`: the IC50 on CXCR4 on MCF-7 cells (read-out: IC50, competition with 125I SDF-1α for binding to MCF-7, 3 hr at 4° C.) was 46 nM. Moreover, the “competition with / inhibition of 125I SDF-1α binding on CEM-NKr (in words)” value on CXCR4 on CEM-NKr cells is recorded as “does not inhibit”.

One may read the IC50 as the concentration that gives 50% inhibition.
